A word on the IC50: it is the concentration at which inhibition is half-maximal.

Chains of the proteins cited; added tags and fusions are not shown. Residues count along the entry.
UniProt P05121, 24-402: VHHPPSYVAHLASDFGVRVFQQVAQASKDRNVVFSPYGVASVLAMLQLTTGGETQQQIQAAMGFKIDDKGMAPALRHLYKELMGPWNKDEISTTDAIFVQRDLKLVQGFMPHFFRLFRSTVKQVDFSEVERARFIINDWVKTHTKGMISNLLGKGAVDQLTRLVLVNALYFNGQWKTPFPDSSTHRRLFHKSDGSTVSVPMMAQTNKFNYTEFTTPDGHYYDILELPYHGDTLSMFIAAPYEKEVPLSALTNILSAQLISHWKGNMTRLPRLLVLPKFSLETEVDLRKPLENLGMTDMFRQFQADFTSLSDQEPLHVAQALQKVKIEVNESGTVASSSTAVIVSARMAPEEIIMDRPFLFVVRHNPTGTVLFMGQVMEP

Like-named read-outs stand apart in the source and are kept apart here.

The target of the test is recombinant active human PAI-1 (Homo sapiens, UniProt P05121). The test is described as follows: PAI-1 inhibitory activity against uPA (fluorogenic uPA substrate). It counts as biochemical. As to conditions: read-out: IC50 for inhibiting the activity of PAI-1 against uPA. On the procedure:
The activity of the small molecule PAI-1 inhibitors against PAI-1 was analyzed as previously described. Briefly, recombinant active human PAI-1 was incubated at 2 nM for 15 min at 23°C with increasing concentrations of each compound in assay buffer (40 mM HEPES, pH 7.4, 100 mM NaCl, 0.005% Tween 20, 0.1% DMSO), or in assay buffer contain 50 nM vitronectin or 10% human PAI-1-depleted plasma followed by the addition of uPA (Innovative Research), and further incubated for 30 min at 23°C. At each drug concentration, parallel control reactions without PAI-1 were assembled. Residual enzymatic activity was determined by addition of an equal volume of 100 μM Z-Gly-Gly-Arg-AMC (Calbiochem) fluorogenic uPA substrate, and the rate of AMC release monitored at 23°C (excitation 370 nm and emission 440 nm). The percent change in PAI-1 activity was determined according to Eq. 1: [(Ei – Pi) / Ei] / [(E0 - P0) / E0], where Ei is the enzyme activity at drug concentration i; Pi is the enzyme activity in the presence of PAI-1 at drug concentration i; E0 is the enzyme activity in the absence of drug; and P0 is the enzyme activity in the presence of PAI-1 but in the absence of drug. Data were then plotted as the residual PAI-1 activity as a percentage of the control PAI-1 activity vs. compound concentration and from these curves the IC50 of each compound was calculated.

`O=C(O)C(=O)c1cn(Cc2ccccc2)c2ccc(-c3ccc(OC(F)(F)F)cc3)cc12` [Tiplaxtinin]: the half-maximal inhibitory concentration (IC50) (buffer containing 10% human PAI-1-depleted plasma) stood at 2000 µM, the IC50 (buffer with 50 nM purified human vitronectin) came out at 583 µM and the IC50 (in buffer alone) turned out to be 22 µM.
